Laboratory results taken from ChEMBL document CHEMBL5543159, “Discovery of an Ortho-Substituted N-Cyclopropylmethyl-7α-phenyl-6,14-endoethano-tetrahydronorthebaine Derivative as a Selective and Potent Kappa Opioid Receptor Agonist with Subsided Sedative Effect” (2024).

Experiments:
[1] = Toxicity in male ICR mouse assessed as sedation at 0.6 to 15.2 mg/kg, ip measured after 8 hrs by Rotarod test; conditions: in vivo
[2] = Toxicity in male ICR mouse assessed as aversion at 0.6 mg/kg, ip administered for 8 hrs and conditioned for 6 days measured after 24 hrs post conditioning by CPA test; conditions: in vivo, 176 h
[3] = Toxicity in male ICR mouse assessed as aversion at 3.8 mg/kg, ip administered for 8 hrs and conditioned for 6 days measured after 24 hrs post conditioning by CPA test; conditions: in vivo, 176 h
[4] = Toxicity in male ICR mouse assessed as change in mouse behaviour at 0.6 mg/kg, ip measured upto 8 hrs by Rotarod test; conditions: in vivo
[5] = Toxicity in male ICR mouse assessed as decrease in duration of time spent on rotarod at 3.8 mg/kg, ip measured after 4 hrs post administration by Rotarod test; conditions: in vivo
[6] = Toxicity in male ICR mouse assessed as effect on conditioned plate aversion at 0.6 to 3.8 mg/kg, ip measured after 4 hrs post administration by CPA test; conditions: in vivo
[7] = Toxicity in male ICR mouse assessed as sedation at 5.0 mg/kg, ip measured after 8 hrs by Rotarod test; conditions: in vivo
[8] = Toxicity in male ICR mouse assessed as aversion at 5 mg/kg, ip administered for 8 hrs and conditioned for 6 days measured after 24 hrs post conditioning by CPA test; conditions: in vivo, 176 h

SMILES	Activity [1]	Activity [2]	Activity [3]	Activity [4]	Activity [5]	Activity [6]	Activity [7]	Activity [8]
COc1ccc2c3c1O[C@H]1[C@@]4(OC)CC[C@@]5(C[C@@H]4c4ccccc4NCc4ccccc4)[C@@H](C2)N(CC2CC2)CC[C@]315	Non-Toxic	Non-Toxic	Non-Toxic	Non-Toxic	Toxic	Non-Toxic	–	–
CN(C(=O)Cc1ccc(Cl)c(Cl)c1)C1CCCCC1N1CCCC1.Cl (stereo not drawn)	–	–	–	–	–	–	Toxic	Toxic
